Reference: US12528818B2, “Compositions and methods for inhibition of RAS” (Leidos Biomedical Research, Inc., priority 2021, dated 2026)
pIC50: −log10 of the molar value. Like-named read-outs stand apart in the source and are kept apart here. Each block holds one molecule with its values, some of them ahead of it.

How the values were obtained:
[1] = biological target: GppNHp-loaded KRAS4b (amino acids 1-169) G12C/C118S protein (Homo sapiens, UniProt P01116, C118S/G12C); experiment: Covalent cysteine 12 modification by MALDI-TOF MS, GppNHp-loaded KRAS G12C; format: biochemical; conditions: 15 minutes reaction time, compound 95 or later using 1 μM proteins
[2] = biological target: T1, Avi-KRAS G12C (1-169) GppNHp/RAF1 RBD-3xFLAG (52-151) (Homo sapiens, UniProt P01116, G12C); conditions: read-out: Raf1-GppNHp-KRAS G12C disruption; Raf1 RBD-KRAS G12C-GppNHp disruption assay IC50
[3] = biological target: T2, GTP-loaded KRAS4b (amino acids 1-169) G12C/C118S protein (Homo sapiens, UniProt P01116, C118S/G12C); experiment: Covalent cysteine 12 modification by MALDI-TOF MS, GTP-loaded KRAS G12C; format: biochemical; conditions: 15 minutes reaction time, compound 95 or later using 1 μM proteins
T2 construct: KRAS4b (amino acids 1-169) G12C/C118S protein; made in house

[4] = biological target: GDP-loaded KRAS4b (amino acids 1-169) G12C/C118S protein (Homo sapiens, UniProt P01116, C118S/G12C); experiment: Covalent cysteine 12 modification by MALDI-TOF MS, GDP-loaded KRAS G12C; format: biochemical; conditions: 15 minutes reaction time, compound 95 or later using 1 μM proteins
[5] = biological target: T1, Avi-KRAS G12C (1-169) GppNHp/RAF1 RBD-3xFLAG (52-151); experiment: biochemical; conditions: Raf1-GppNHp-KRAS G12C disruption, Raf1 RBD-KRAS G12C-GppNHp disruption assay IC50

Compound: C=CC(=O)N1C[C@H](C)N(c2nc(OC[C@@]34CCCN3C[C@H](OC)C4)nc3c(F)c(-c4ccc(F)c5sc(N)nc45)c(C(F)(F)F)cc23)C[C@H]1C [Compound 297]
GppNHp-KRAS G12C percent of modification [1]: A (percent of modification ≥70%) | pIC50 [2]: > 6.30 | GTP-KRAS G12C percent of modification [3]: C (10%≤percent of modification <50%) | GDP-KRAS G12C percent of modification [4]: A (percent of modification ≥70%)

Compound: C=CC(=O)N1CC[C@@H](N(C)c2nc(OCC3(CN4CC[C@@H](F)C4)CC3)nc3c(F)c(-c4ccc(F)c5sc(N)nc45)c(C(F)(F)F)cc23)C1 [Compound 288]
pIC50 [5]: > 6.30 | GppNHp-KRAS G12C percent of modification [1]: B (50≤percent of modification <70%) | GTP-KRAS G12C percent of modification [3]: B (50≤percent of modification <70%) | GDP-KRAS G12C percent of modification [4]: A (percent of modification ≥70%)

Compound: C=CC(=O)N1C[C@H](C)N(c2nc(OC[C@@H]3CCCN3C)nc3c(F)c(-c4ccc(F)c5sc(N)c(C#N)c45)c(C(F)(F)F)cc23)C[C@H]1C (single isomer, unassigned) [Compound 458]
pIC50 [5]: > 6.30 | GppNHp-KRAS G12C percent of modification [1]: A (percent of modification ≥70%) | GTP-KRAS G12C percent of modification [3]: B (50≤percent of modification <70%) | GDP-KRAS G12C percent of modification [4]: A (percent of modification ≥70%)

Compound: C=CC(=O)N1CCC[C@@H](N(C)c2nc(OC[C@@]34CCCN3C[C@H](F)C4)nc3c(F)c(-c4ccc(F)c5sc(N)nc45)c(Cl)cc23)C1 (atropisomer, axis not shown) [Compound 242]
GppNHp-KRAS G12C percent of modification [1]: C (10%≤percent of modification <50%) | pIC50 [2]: > 6.30 | GDP-KRAS G12C percent of modification [4]: C (10%≤percent of modification <50%)

Compound: C=CC(=O)N1C[C@H](C)N(c2nc(OC[C@]3(C)CCCN3C)nc3c(F)c(-c4ccc(F)c5sc(N)c(C#N)c45)c(C(F)(F)F)cc23)C[C@H]1C [Compound 447, 4-(4-((2S,5R)-4-acryloyl-2,5-dimethylpiperazin-1-yl)-2-(((S)-1,2-dimethylpyrrolidin-2-yl)methoxy)-8-fluoro-6-(trifluoromethyl)quinazolin-7-yl)-2-amino-7-fluorobenzo[b]thiophene-3-carbonitrile]
pIC50 [5]: > 6.30 | GppNHp-KRAS G12C percent of modification [1]: A (percent of modification ≥70%) | GTP-KRAS G12C percent of modification [3]: C (10%≤percent of modification <50%) | GDP-KRAS G12C percent of modification [4]: A (percent of modification ≥70%)

Compound: C=CC(=O)N1C[C@H](N(C)c2ncnc3c(F)c(-c4ccc(F)c5sc(N)nc45)c(C(F)(F)F)cc23)C2(CC2)C1 (atropisomer, axis not shown) [Compound 264]
GppNHp-KRAS G12C percent of modification [1]: D (percent of modification <10%) | pIC50 [2]: < 4.70 | GDP-KRAS G12C percent of modification [4]: D (percent of modification <10%)

Compound: C=CC(=O)N1CCC(N(C)c2nc(OC[C@@H]3CC4(CC4)CN3C)nc3cc(-c4ccc(F)c5sc(N)c(C#N)c45)c(C#N)cc23)[C@H]1COC (some centres unmarked) [Compound 446]
pIC50 [5]: > 6.30 | GppNHp-KRAS G12C percent of modification [1]: A (percent of modification ≥70%) | GTP-KRAS G12C percent of modification [3]: A (percent of modification ≥70%) | GDP-KRAS G12C percent of modification [4]: A (percent of modification ≥70%)

Compound: C=CC(=O)N1CCC(N(C)c2nc(OC[C@@H]3CC4(CC4)CN3C)nc3c(F)c(-c4ccc(F)c5sc(N)c(C#N)c45)ccc23)[C@H]1C (some centres unmarked) [Compound 436]
pIC50 [5]: > 6.30 | GppNHp-KRAS G12C percent of modification [1]: A (percent of modification ≥70%) | GTP-KRAS G12C percent of modification [3]: A (percent of modification ≥70%) | GDP-KRAS G12C percent of modification [4]: A (percent of modification ≥70%)

Now from value to molecule:

pIC50 [5]: > 6.30 | GppNHp-KRAS G12C percent of modification [1]: C (10%≤percent of modification <50%) | GTP-KRAS G12C percent of modification [3]: C (10%≤percent of modification <50%) | GDP-KRAS G12C percent of modification [4]: C (10%≤percent of modification <50%)
Compound: C=CC(=O)N1CC[C@@H](N(C)c2nc(N3CC(N4CC5(CC5)C4)C3)nc3c(F)c(-c4ccc(F)c5sc(N)c(C#N)c45)c(C(F)(F)F)cc23)C1 [Compound 340]

pIC50 [5]: > 6.30 | GppNHp-KRAS G12C percent of modification [1]: A (percent of modification ≥70%) | GTP-KRAS G12C percent of modification [3]: A (percent of modification ≥70%) | GDP-KRAS G12C percent of modification [4]: A (percent of modification ≥70%)
Compound: C=CC(=O)N1CCC(N(C)c2nc(OC[C@@]34CCCN3C[C@H](F)C4)nc3c(C#N)c(-c4ccc(F)c5sc(N)c(C#N)c45)ccc23)[C@H]1COC (some centres unmarked) [Compound 394]

pIC50 [5]: > 6.30 | GppNHp-KRAS G12C percent of modification [1]: A (percent of modification ≥70%) | GTP-KRAS G12C percent of modification [3]: B (50≤percent of modification <70%) | GDP-KRAS G12C percent of modification [4]: A (percent of modification ≥70%)
Compound: C=CC(=O)N1C[C@@H](F)[C@@H](N(C)c2nc(OC[C@@]34CCCN3C[C@H](F)C4)nc3c(F)c(-c4ccc(F)c5sc(N)nc45)c(C#N)cc23)C1 [Compound 360]

pIC50 [5]: > 6.30 | GppNHp-KRAS G12C percent of modification [1]: A (percent of modification ≥70%) | GTP-KRAS G12C percent of modification [3]: A (percent of modification ≥70%) | GDP-KRAS G12C percent of modification [4]: A (percent of modification ≥70%)
Compound: C=CC(=O)N1CC[C@@H](N(C)c2nc(OC[C@@]34CCCN3C[C@H](F)C4)nc3cc(-c4ccc(F)c5sc(N)c(C#N)c45)c(F)cc23)[C@H]1COC [Compound 391]

pIC50 [5]: > 6.30 | GppNHp-KRAS G12C percent of modification [1]: A (percent of modification ≥70%) | GTP-KRAS G12C percent of modification [3]: B (50≤percent of modification <70%) | GDP-KRAS G12C percent of modification [4]: A (percent of modification ≥70%)
Compound: C=CC(=O)N1C[C@H](C)N(c2nc(OC[C@@]34CCCN3C[C@H](F)C4)nc3c(F)c(-c4ccc(F)c5sc(N)c(C#N)c45)c(C(F)(F)F)cc23)C[C@H]1C [Compound 252, 4-(4-((2S,5R)-4-acryloyl-2,5-dimethylpiperazin-1-yl)-8-fluoro-2-(((2R,7aS)-2-fluorotetrahydro-1H-pyrrolizin-7a(5H)-yl)methoxy)-6-(trifluoromethyl)quinazolin-7-yl)-2-amino-7-fluorobenzo[b]thiophene-3-carbonitrile]

pIC50 [5]: > 6.30 | GppNHp-KRAS G12C percent of modification [1]: A (percent of modification ≥70%) | GTP-KRAS G12C percent of modification [3]: A (percent of modification ≥70%) | GDP-KRAS G12C percent of modification [4]: A (percent of modification ≥70%)
Compound: C=CC(=O)N1C[C@H](F)[C@@H](N(C)c2nc(OC[C@@]34CCCN3C[C@H](F)C4)nc3cc(-c4ccc(F)c5sc(N)c(C#N)c45)c(C(F)(F)F)cc23)C1 [Compound 320]

pIC50 [5]: > 6.30 | GppNHp-KRAS G12C percent of modification [1]: A (percent of modification ≥70%) | GTP-KRAS G12C percent of modification [3]: B (50≤percent of modification <70%) | GDP-KRAS G12C percent of modification [4]: A (percent of modification ≥70%)
Compound: C=CC(=O)N1C[C@@H](F)[C@@H](N(CC)c2nc(OC[C@@]34CCCN3C[C@H](F)C4)nc3cc(-c4ccc(F)c5sc(N)c(C#N)c45)ccc23)C1 [Compound 377]

pIC50 [5]: 5.30 to 6.30 | GppNHp-KRAS G12C percent of modification [1]: C (10%≤percent of modification <50%) | GTP-KRAS G12C percent of modification [3]: D (percent of modification <10%) | GDP-KRAS G12C percent of modification [4]: B (50≤percent of modification <70%)
Compound: C=CC(=O)N1CC[C@@H](N(C)c2nc(OC)nc3c(F)c(-c4ccc(F)c5sc(N)c(C#N)c45)c(C(F)(F)F)cc23)C1 [Compound 384]

pIC50 [5]: > 6.30 | GppNHp-KRAS G12C percent of modification [1]: A (percent of modification ≥70%) | GTP-KRAS G12C percent of modification [3]: A (percent of modification ≥70%) | GDP-KRAS G12C percent of modification [4]: A (percent of modification ≥70%)
Compound: C=CC(=O)N1CC[C@@H](N(C)c2nc(OC[C@@]34CCCN3C[C@H](F)C4)nc3c(F)c(-c4ccc(F)c5sc(N)nc45)c(C(F)(F)F)cc23)C1 (single isomer, unassigned) [Compound 239]

pIC50 [5]: > 6.30 | GppNHp-KRAS G12C percent of modification [1]: A (percent of modification ≥70%) | GTP-KRAS G12C percent of modification [3]: A (percent of modification ≥70%) | GDP-KRAS G12C percent of modification [4]: A (percent of modification ≥70%)
Compound: C=CC(=O)N1CCC(N(C)c2nc(OC[C@@]34CCCN3C[C@H](F)C4)nc3c(F)c(-c4ccc(F)c5sc(N)nc45)ccc23)[C@H]1C (some centres unmarked) [Compound 413]

pIC50 [5]: > 6.30 | GppNHp-KRAS G12C percent of modification [1]: B (50≤percent of modification <70%) | GTP-KRAS G12C percent of modification [3]: B (50≤percent of modification <70%) | GDP-KRAS G12C percent of modification [4]: A (percent of modification ≥70%)
Compound: C=CC(=O)N1CC[C@@H](N(CC)c2nc(OC[C@@]34CCCN3C[C@H](F)C4)nc3c(F)c(-c4ccc(F)c5sc(N)c(C#N)c45)c(C(F)(F)F)cc23)[C@H]1COC [Compound 442]
